Laboratory results: PubChem BioAssay AID900 (National Center for Advancing Translational Sciences (NCATS), 2007)
The entries are a selection whose mix differs from that of the whole data set. Some of these compounds have results that are not shown, active ones among them. Activity calls are given as the source filed them. Calls come from the whole dose curve; as a rule, active = well fitted inhibition curve with a large enough effect; inconclusive = small, poorly fitted or top-dose-only effect; inactive = flat fitted curve, though single readings scatter.
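Note: plate controls were vehicle for no effect and no substrate for full effect.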

The compounds below were run against Caspase-1 (Homo sapiens) (UniProt P29466) (assay: qHTS Assay for Allosteric/Competitive Inhibitors of Caspase-1). Conditions: Caspase-1 enzyme, Ac-WEHD-AFC fluorogenic rate; at 11.5 µM (top of the series) unless noted.
From the text: NIH Molecular Libraries Screening Centers Network [MLSCN]
NIH Chemical Genomics Center [NCGC]
PI Name: Dr. James Wells,
Dr. Enrique Perez-Paya, Dr.Janice Williams, Dr. Dennis Wolan, a person
The caspases (Cysteine Aspartyl Protease) comprise a related family of 14 dimeric proteases that are critical mediators of apoptosis (programmed cell death) and inflammation. The caspases represent an important class of drug targets for stroke, ischemia, cancer and inflammatory diseases. […] One goal of this project was to identify compounds that act as allosteric inhibitors via stabilizing the procaspase form of the enzyme. Previous work in Well's laboratory has shown that such allosteric inhibitors can be identified and these act by binding at the dimer interface of enzyme (Hardy, Lam et al., 2004).
The biochemical assay was configured using purified caspase 1 at a high enzyme concentration to promote formation of the homodimers and thus facilitate the identification of allosteric inhibitors. The overall goal was to identify reversible inhibitors with better drug-like properties than the currently available set of aspartyl-containing peptidomimetics that covalently bind the active site. Caspase 1 was assayed using the profluorescent substrate Ac-WEHD-AFC. After initiation of the assay with substrate the plates were rapidly read using an automated robotic system (Kalypsys, Inc.) to maintain consistent timing. A kinetic mode of detection was used where the initial rate was collected (estimated final product formation was ~10%). Compounds were screened as a concentration-titration series that ranged from 57 uM to 0.7 nM. Below is the protocol used for caspase 1.
NCGC Assay Protocol Summary:
Caspase 1 was prepared in buffer (50 mM HEPES pH 7.5, 50 mM KCl, 200 mM NaCl, 10 mM DTT, 0.1% CHAPS) at a concentration of 66.6 nM and 3 uL was dispensed to all wells using black solid Kalypsys 1536-well plates. 20 nL of DMSO containing compounds was added using a pin-tool (Kalypsys Inc.) to columns 5-48. Then 20 nL of DMSO solution from a control plate was added to columns 1-4. Controls were: Column 1, 16 point titration with each concentration in duplicate (1:1 dilutions in DMSO; final starting concentration was 57 uM) of the caspase 1 inhibitor Ac-WEHD-CHO (Alexis Biochemicals); Column 2, a 16 point titration with each concentration in duplicate of the free AFC fluorophore prepared in DMSO (Alexis Biochemicals), final starting was 40 uM; Column 3 neutral (DMSO only) control; Column 4: DMSO alone, to serve as a negative control (no substrate was added). Then 1 uL of 20 uM the substrate Ac-WEHD-AFC (Alexis Biochemicals) prepared in the same buffer was dispensed to all wells except columns 2 and 4 and the plates were immediately transferred (< 1 min) to the Viewlux. The plates were then exposed using 405 nm excitation/520 nm emission filters for 4 sec and read at 20 sec intervals for 3 min. […]
Concentration-response curves were fitted to the data calculated from slope of the linear regression of fluorescent intensity versus time (the rate). The concentration-effect curves were then classified based on curve quality (r2), response magnitude and degree of measured activity. […] Inconclusive compounds had appreciable concentration-dependent effects on both the measured rate and the interpolated basal fluorescence intensity at the start of the reaction but where the basal fluorescent intensity was marginal (e.g. < 10-fold). […]
In the case of `CN(C)c1cccc(C(=O)NCC2(N(C)C)CCCCC2)c1`, the activity change, negative = inhibition is reported as inactive: -7.06% [at 57.5 µM].
`CN1CCC[C@H](OC(=O)[C@](O)(c2ccccc2)C2CCCC2)C1` was tested, and the activity change, negative = inhibition was inactive: 0.941%.
In the case of `O=C(OC1CN2CCC1CC2)C(CO)(c1ccccc1)c1ccccc1` (stereo not given), the activity change, negative = inhibition is reported as inactive: 0.214% [at 57.5 µM].
For `CN1CC[C@H](OC(=O)[C@](O)(c2ccccc2)C2CCCC2)C1`, the activity change, negative = inhibition was inactive: -1%.
In the case of `C=C(C)C#C[C@@](O)(C(=O)OC1CCN(C)CC1)c1ccccc1`, the activity change, negative = inhibition is reported as inactive: -1.51%.
